Amino acid sequences for entries named in this document (tags omitted).
UniProt P27695, whole entry, looked up: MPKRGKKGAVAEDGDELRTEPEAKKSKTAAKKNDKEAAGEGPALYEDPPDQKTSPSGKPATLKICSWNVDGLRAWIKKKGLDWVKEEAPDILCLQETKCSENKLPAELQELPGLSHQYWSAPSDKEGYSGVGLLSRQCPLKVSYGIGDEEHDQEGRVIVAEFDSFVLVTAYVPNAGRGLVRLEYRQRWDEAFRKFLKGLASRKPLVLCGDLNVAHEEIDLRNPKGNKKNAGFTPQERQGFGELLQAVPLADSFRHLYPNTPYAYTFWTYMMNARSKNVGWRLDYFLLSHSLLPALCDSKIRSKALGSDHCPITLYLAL

Hit rate of the full screen: of about 350,000 compounds, about 1,200 (0.34%) were called active. Only results without a clear call are listed here; the source files them as inconclusive. Calls come from the whole dose curve; as a rule, active = well fitted inhibition curve with a large enough effect; inconclusive = small, poorly fitted or top-dose-only effect; inactive = no such curve, though single readings can be large or run the other way.
The compounds below were run against DNA repair nuclease/redox regulator APEX1 (Homo sapiens) (UniProt P27695) (assay: qHTS Assay for Inhibitors of the Human Apurinic/apyrimidinic Endonuclease 1 (APE1)). Conditions: recombinant APE1, TAMRA/BHQ-2 abasic DNA cleavage fluorescence.
`O=P(Nc1nccs1)(c1ccccc1)c1nc2ccccc2s1` (stereo not drawn) was tested, and the Potency was inconclusive: 28.2 µM. In the case of `O=[As](O)(O)c1cccnc1`, the Potency is reported as inconclusive: 3.16 µM. In the case of `COc1ccc(N/C(=N/P(=O)(N2CCOCC2)N2CCOCC2)N2CCOCC2)cc1`, the Potency is reported as inconclusive: 44.7 µM. For `O=[N+]([O-])c1cc([N+](=O)[O-])c(-c2ccn[nH]2)s1`, the Potency was inconclusive: 5.62 µM. For `O=[As](O)(c1ccc(O)cc1)c1ccccc1O`, the Potency was inconclusive: 11.2 µM. `Nc1cccc2ccc([As](=O)(O)O)cc12` was tested, and the Potency was inconclusive: 15.8 µM. `Nc1cc(N)c2nonc2c1[N+](=O)[O-]` was tested, and the Potency was inconclusive: 39.8 µM. In the case of `Oc1ccccc1CNc1ccccn1`, the Potency is reported as inconclusive: 39.8 µM. With `Clc1ccc(Cl)c(NC2=NCC(CBr)S2)c1` (stereo not drawn) the Potency was inconclusive: 28.2 µM. For `CC(C)=N/N=C(\N)N[N+](=O)[O-]`, the Potency was inconclusive: 22.4 µM. In the case of `CCc1nc2c(n1)c1c(non1O)c1c2no[n+]1[O-]`, the Potency is reported as inconclusive: 44.7 µM. In the case of `C(Cc1nn[nH]n1)Cc1nn[nH]n1`, the Potency is reported as inconclusive: 0.0056 µM. With `Cc1ccccc1OP(=O)(Nc1ccccn1)Oc1ccccc1C` the Potency was inconclusive: 20 µM.
Note: nearly all actives have a fitted effect of over 55% in size.
Potency is the fitted concentration of half-maximal effect.
